Data as given in US20240199535A1, “DEUTERATED DHODH INHIBITORS” (priority 2021, published 2024).

Chains of the proteins cited; added tags and fusions are not shown. Lines headed by an entry give the natural chain unless they say otherwise; changes in a name come on top.
UniProt Q02127: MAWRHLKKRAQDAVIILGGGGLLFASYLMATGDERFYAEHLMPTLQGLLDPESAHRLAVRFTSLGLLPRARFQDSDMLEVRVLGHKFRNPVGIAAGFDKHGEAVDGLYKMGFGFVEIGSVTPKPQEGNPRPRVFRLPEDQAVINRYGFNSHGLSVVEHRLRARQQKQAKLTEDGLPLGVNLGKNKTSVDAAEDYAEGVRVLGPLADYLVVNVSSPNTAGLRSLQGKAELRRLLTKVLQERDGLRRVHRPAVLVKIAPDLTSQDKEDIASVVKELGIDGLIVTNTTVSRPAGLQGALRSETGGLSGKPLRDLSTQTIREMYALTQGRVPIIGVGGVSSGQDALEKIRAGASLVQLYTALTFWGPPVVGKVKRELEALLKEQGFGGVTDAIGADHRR

Biological target: N-terminally truncated recombinant hDHODH enzyme (Homo sapiens, UniProt Q02127)
Experiment: biochemical

[2H]C([2H])([2H])Oc1cccc(-c2ccc(NC(=O)C3=C(C(=O)O)CCC3)c3cnccc23)c1 [12/3]
IC50: > 10000 nM

[2H]C([2H])([2H])C([2H])([2H])Oc1cccc(-c2cc(F)c(NC(=O)C3=C(C(=O)O)CCC3)c(F)c2)c1 [1/3]
IC50: < 100 nM

[2H]C1([2H])OC([2H])([2H])C([2H])([2H])N(c2cc(F)c(NC(=O)C3=C(C(=O)O)CCC3)c(F)c2)C1([2H])[2H] [1/11]
IC50: > 10000 nM

[2H]C(F)(F)Oc1cccc(-c2ccc(NC(=O)C3=C(C(=O)O)CCC3)c(F)c2)c1 [Example 5, 2-((3′-(Difluoromethoxy-d)-3-fluoro-[1,1′-biphenyl]-4-yl)carbamoyl)cyclopent-1-ene-1-carboxylic Acid]
Ki: 839 nM

[2H]c1cc([2H])c(-c2c(F)c(F)c(NC(=O)C3=C(C(=O)O)CCC3)c(F)c2F)c([2H])c1OC(F)(F)F [Example 3, 2-((2,3,5,6-Tetrafluoro-3′-(trifluoromethoxy)-[1,1′-biphenyl]-4-yl-2′,4′,6′-d3)carbamoyl)cyclopent-1-ene-1-carboxylic Acid]
IC50: < 100 nM

[2H]c1cc([2H])c(-c2ccc(NC(=O)C3=C(C(=O)O)CCC3)c(F)c2)c([2H])c1O [Example 8, 2-((3-Fluoro-3′-hydroxy-[1,1′-biphenyl]-4-yl-2′,4′,6′-d3)carbamoyl)cyclopent-1-ene-1-carboxylic Acid]
IC50: 1000 to 10000 nM

[2H]c1cc([2H])c(-c2c(F)c(F)c(NC(=O)c3ccsc3C(=O)O)c(F)c2F)c([2H])c1OC(F)(F)F [Example 4, 3-((2,3,5,6-Tetrafluoro-3′-(trifluoromethoxy)-[1,1′-biphenyl]-4-yl-2′,4′,6′-d3)carbamoyl)thiophene-2-carboxylic Acid]
Ki: 1.2 nM

[2H]c1c([2H])c(F)c([2H])c(-c2cc(F)c(NC(=O)C3=C(C(=O)O)CCC3)c(F)c2)c1[2H] [1/7]
IC50: 100 to 1000 nM
